Source: US20260382775A1, “ALPHA EMITTER LABELLED SOMATOSTATIN RECEPTOR ANTAGONISTS” (published 2026)
Where “and” joins values, the source holds several entries; their conditions need not be identical. Equal entries are not always repeated.

Assays:
[1] = tested on: SST2-positive NCI-H69 tumor; assay: Single- and multi-dose efficacy study of ^225Ac-Compound 1
Experimental: (§1) A single- and multi-dose efficacy study in SST2-positive NCI-H69 tumor-bearing mice was conducted. 60 Balb/C nude female mice aged 6-8 weeks were injected with 5×10^6 NCI-H69 cells in the right flank and treatment started when tumors reached a mean tumor volume of 140 mm^3. Animals were euthanized when either tumor volumes of more than 1000 mm^3 were observed or other ethical criteria were reached.

[2] = tested on: NCI-H69 tumor expressing SST2; assay: Single dose efficacy study of ^212Pb-Compound 1 (0.35-1.6 MBq), Table 1
Experimental: (§2) A single dose study with tumor bearing mice with an NCI-H69 model for expressing SST2 was performed. 25 Balb/C nude female mice aged 6-8 weeks were injected with 5×10^6 NCI-H69 cells in the right flank three weeks prior to treatment. Mice were observed daily 14 days prior to and for 60 days following treatment. Mice were treated when tumors reach approximately 250 mm^3 and were euthanized when either tumors reach 1000 mm^3 or mice reach an euthanize status on the health score sheet.
(§3) The mice were distributed into five groups for different treatments: […]

[3] = Radiochemical stability of ^212Pb-labelled Compound 1 (HPLC); settings: over 6 h, sodium ascorbate formulation buffer
Experimental: Compound 1 was dissolved in reaction buffer, e.g. at a concentration of 1 mg/mL and added to a solution of ^212Pb (in HCl). The resulting mixture was heated at temperatures between 75-95 °C for 20-45 min, and then allowed to cool to room temperature. The specific activity during radiolabeling ranged between 100-2000 Gbq/mmol. The reaction mixture was added to a formulation buffer consisting of sodium ascorbate to stabilize the final dose and to guarantee the quality and safety of the dose. The radiochemical purity was >90% over 6 h and no radiolytic degradation was observed by high performance liquid chromatography (HPLC).

[4] = tested on: NCI-H69 tumor cells expressing SST2; assay: Biodistribution of ^225Ac-Compound 1 in NCI-H69 xenograft mice
Experimental: The 4 h, 24 h, 96 h biodistribution study of ^225Ac-Compound 1 was performed with xenograft Balb/c nude mice engrafted with NCI-H69 tumor cells expressing SST2. NCI-H69 cells (cells from the human small cell lung cancer cell line NCI-H69) were grown in RPMI1640 media with 10% FBS. Upon 80% confluency, cells were collected and dissolved in 1:1 of PBS and matrigel for injection. 100 μl of cell solution with 5×10^6 cells were injected in the right flank of Balb/C nude female mice at an age of ~7 weeks. 12 mice were injected with 90 kBq of ^225Ac-Compound 1 in 100 μL. At 4 hours, 24 hours and 96 hours post injection, 4 mice were sacrificed by overdose of a mixture of ketamine and xylazine followed by exsanguination via intracardiac puncture. Mice were dissected and organs were rinsed in 0.9% NaCl to eliminate contaminating blood and blotted before being weighed and subsequently transferred into scintillation vials. Tissues were dissolved using Solvable as tissue solubilizer. Each solution was decolorized by adding 30% H2O2 before scintillation counting. Pico-Fluor Plus was used as liquid scintillation counting cocktail. The radioactivity was measured using a Hidex 300 SL calibrated for ^225Ac radionuclide.

[5] = tested on: SST2-positive NCI-H69 tumor; assay: Single- and multi-dose efficacy study of ^212Pb-Compound 1
Experimental: as §1, with “55” for “60”, “260” for “140”

[6] = tested on: NCI-H69 tumor expressing SST2; assay: Single dose efficacy study of ^212Pb-Compound 1 (113-503 kBq), Table 2; settings: for time to visible treatment effects: after treatment
Experimental: as §2, §3

[7] = Stability of ^225Ac-Compound 1 radiolabelling (TLC); settings: up to 72 h after synthesis
Experimental: The radiochemical purity of Compound 1 over the monitored period is stable resulting in an acceptable stability of the formulation.
Radiolabelling was initially performed as described in Example 3 but with reaction buffer comprising 0.25 M TRIS buffer at pH 8. Subsequently, the radiolabelling was performed by dissolving Compound 1 in the reaction buffer at a concentration of 1 mg/mL and added to a solution of ^225Ac (in HCl). The resulting mixture was heated at temperatures between 75-95 °C for 20-45 min, and then allowed to cool to room temperature. The specific activity during radiolabeling ranged between 1-10 GBq/mmol. The reaction mixture was added to a formulation buffer consisting of sodium ascorbate to stabilize the final dose.

[8] = tested on: SST2-positive NCI-H69 tumor; assay: Single-dose efficacy study of ^225Ac-Compound 1
Experimental: A single-dose efficacy study in SST2-positive NCI-H69 tumor-bearing mice was conducted. Balb/c nude female mice aged 6-8 weeks were injected with 5×10^6 NCI-H69 cells in the flank and treatment started when tumors reached a mean tumor volume of 160 mm^3.

[9] = tested on: NCI-H69 tumor expressing SST2; assay: Biodistribution of ^212Pb-Compound 1 in NCI-H69 xenograft mice; settings: for tumor uptake: 1.3-1.5 MBq
Experimental: The 1 h, 4 h, 24 h biodistribution study of ^212Pb-Compound 1 was performed with xenograft Balb/c nude mice with a NCI-H69 model for expressing SST2. NCI-H69 cells (cells from the human small cell lung cancer cell line NCI-H69) were grown in DMEM media with 10% FBS. Upon 80% confluency, cells were collected and dissolved in 1:1 of PBS and matrigel for injection. 50 μl of cell solution with 5×10^6 cells were injected in right flank (Balb/C nude female mice 6-8 weeks). 15 mice were injected with 1.3-1.5 MBq of ^212Pb-Compound 1 (approximately 50 μL injection). At 1 hour, 4 hours and 24 hours post injection, 5 mice were sacrificed by cervical dislocation and a blood sample immediately removed by cardiac puncture.
Mice were dissected and organs were washed in PBS to remove blood and added to pre-weighed gamma counter tubes for further analysis. […] A moderate uptake within the radiosensitive organ (kidney) was observed, with a tumor to kidney ratio staying constant at 0.4 over the entire experimental period.

[10] = unlabelled Compound 1 control, single injection

For `C[C@@H](O)[C@@H]1NC(=O)[C@H](CCCCN)NC(=O)[C@@H](Cc2ccc(NC(N)=O)cc2)NC(=O)[C@H](Cc2ccc(NC(=O)[C@@H]3CC(=O)NC(=O)N3)cc2)NC(=O)[C@H](NC(=O)[C@H](Cc2ccc(Cl)cc2)NC(=O)CN2CCN(CC(=O)O)CCN(CC(=O)O)CCN(CC(=O)O)CC2)CSSC[C@@H](C(=O)N[C@H](Cc2ccc(O)cc2)C(N)=O)NC1=O`, the median survival ([1]; 20 MBq Q2W × 3) was “Not reached”, the median survival ([1]; 30 kBq Q2W × 3 (low dose)) was “Not reached” and the median survival ([1]; 30 kBq QW (low dose)) was “Not reached”. The median survival ([1]; 30 kBq QW × 3 (low dose)) was “Not reached”, the median survival ([1]; 90 kBq QW (high dose)) was “Not reached” and the “initial induction of tumor regression versus ^177Lu-Compound 1 given 3x every 2 weeks” value ([1]; single dose (QW) of 90 kBq and 30 kBq) was “as effective as ^177Lu-Compound 1”. The “rate of complete remissions versus ^177Lu-Compound 1” value ([1]; single dose (QW) of 90 kBq and 30 kBq vs 20 MBq Q2W × 3) was “outperformed ^177Lu-Compound 1”, the “time to reach the ethical limits” value ([1]; unlabelled Compound 1 control) was 21 to 55 days and the median survival ([1]; unlabelled Compound 1 control, QW) was 34 days. For the same compound, the “tumor growth / tumor size response” value ([2]; 20 MBq single dose) was “response and delay of the tumor growth but no reduction of the tumor size”, the tumor size ([2]; FIG. 3A, 1.6 MBq and 0.75 MBq, single injection) was “reduces tumor size” and the “tumor growth delay versus unlabelled Compound 1” value ([2]; all doses, even lowest level 0.35 MBq, single dose) was “delay of growth of the tumor size”. For the same compound, the “fraction of radioactivity giving comparable tumor reduction versus ^177Lu-Compound 1” value ([2]; mid and high dose (0.75 MBq and 1.6 MBq) vs 20 MBq ^177Lu-Compound 1) was 1/12, the tumor growth [2, 10] was “the tumor growth progressed in the animals without any impact” and the radiolytic degradation ([3]; HPLC) was “no radiolytic degradation was observed”. The “radiochemical purity over time (stability)” value [3] was over 90%, the tumor-to-kidney ratio ([4]; 4 h, 90 kBq) was 0.75 and the tumor-to-kidney ratio ([4]; 96 h, 90 kBq) was 1.38. The “tumor to background (tumor/kidney) ratio, change over time” value ([4]; FIG. 5B, over the course of 96 h) was “increase of tumor to background ratio”, the “kidney uptake, change over time” value ([4]; over 96 h, 90 kBq) was “rapidly decreased over 96 h” and the tumor uptake ([4]; over 96 h, 90 kBq) was over 4.5 % ID/g. The kidney uptake ([4]; radiosensitive organ (kidney), 90 kBq) was “moderate uptake”, the complete remissions ([5]; 20 MBq Q2W × 3) was 100% and the “efficacy of multiple doses compared to different regimens and doses of ^212Pb-Compound 1” value ([5]; 20 MBq Q2W × 3) was “more effective”. The median survival ([5]; 250 kBq Q2W × 3 (low dose)) was 70 days, the recurrence of tumors ([5]; ^177Lu-Compound 1 Q2W × 3) was “not after ^177Lu-Compound 1 Q2W×3” and the recurrence of tumors ([5]; all ^212Pb-treated groups, but not after ^177Lu-Compound 1 Q2W × 3) was “recurrence of tumors”. The “time to reach the ethical limits” value ([5]; unlabelled Compound 1 control) was 16 to 53 days, the median survival ([5]; unlabelled Compound 1 control, Q2W × 3) was 30 days and 34 days and the “duration of controlled tumor growth” value ([6]; 21.5 MBq single dose) was “up to 20 days”. The median survival ([6]; 21.5 MBq single dose) was 42 days, the “tumor growth / tumor size response” value ([6]; 21.5 MBq single dose) was “response and delay of the tumor growth but no reduction of the tumor size” and the “time to visible treatment effects” value ([6]; 21.5 MBq single dose) was ~ 3 days. For the same compound, the median survival ([6]; 113 kBq single dose) was 41 days, the median survival ([6]; 236 kBq single dose) was 38 days and the median survival ([6]; 503 kBq single dose) was 49 days. For the same compound, the “median survival compared to ^177Lu-Compound 1 (21.5 MBq)” value ([6]; 503 kBq single dose) was “longer median survival”, the “potency regarding tumor growth inhibition and prolongation of survival versus 21.5 MBq ^177Lu-Compound 1” value ([6]; 503 kBq single dose) was “higher potency” and the “mean tumor volume relative to d0” value ([6]; FIG. 3B, highest dose 503 kBq) was “initial reduction of the mean tumor volume relative to d0”. The “median survival ranking among groups” value ([6]; FIG. 3C, highest dose 503 kBq) was “longest median survival”, the “time to visible treatment effects” value ([6]; ^212Pb treatment (113, 236, 503 kBq)) was ~ 3 days and the “tumor growth delay versus unlabelled Compound 1” value ([6]; all doses, even lowest level 113 kBq, single dose) was “delay of growth of the tumor size”. For the same compound, the “time to reach the ethical limit” value ([6]; control (Compound 1) animals) was under 28 days, the “duration of controlled tumor growth” value ([6]; high dose 503 kBq) was “up to 20 days” and the “duration of controlled tumor growth” value ([6]; low dose 113 kBq) was 10 days. The “duration of controlled tumor growth” value ([6]; medium dose 236 kBq) was 14 days, the “decrease in tumor volume” value ([6]; medium dose 236 kBq, at day 10) was ~ 5% and the “fraction of radioactivity giving comparable tumor reduction versus ^177Lu-Compound 1” value ([6]; mid and high dose (236 kBq and 503 kBq) vs 21.5 MBq ^177Lu-Compound 1) was 1/42. For the same compound, the tumor growth [6, 10] was “the tumor growth progressed in the animals without any impact”, the median survival ([6]; unlabelled control, single injection) was 22 days and the “radiochemical purity over the monitored period” value [7] was “stable”. For the same compound, the tumor growth ([8]; 3.33 kBq single dose, up to day 9 after treatment) was “no significant effect on tumor growth”, the tumor growth ([8]; 10 kBq and 30 kBq single dose, starting on day 4 after treatment) was “tumor growth suppression” and the “tumor growth versus vehicle control and 3.33 kBq” value ([8]; FIG. 8, single doses of 10 kBq and 30 kBq, until day 9) was “tumor growth reduction”. The “tissue distribution of uptake” value ([9]; FIG. 2, after 24 hours) was “distributed between two major tissue compartments (kidneys and tumor)”, the “uptake in the tumor tissue” value ([9]; FIG. 2, over 1, 4 and 24 hours) was “clear uptake” and the “tumor to kidney ratio” value ([9]; constant over the entire experimental period (1-24 h)) was 0.4. For the same compound, the tumor uptake ([9]; persisted over 24 h) was over 2 % ID/g, the kidney uptake ([9]; radiosensitive organ (kidney), 1, 4, 24 h) was “moderate uptake” and the tumor uptake ([9]; t=1 h) was over 5 % ID/g.
